In PubChem BioAssay AID504326 (The Scripps Research Institute Molecular Screening Center, 2011):
The list shows a part of the results, in another mix than the full data. Calls of active or inactive are those of the source. No stated cut-off is given here; in the data, active means activation above about 18%; inactive means the rest.

Sequences of proteins named here, by UniProt entry; tags and fusion partners are left off.
UniProt P35372, whole entry, looked up: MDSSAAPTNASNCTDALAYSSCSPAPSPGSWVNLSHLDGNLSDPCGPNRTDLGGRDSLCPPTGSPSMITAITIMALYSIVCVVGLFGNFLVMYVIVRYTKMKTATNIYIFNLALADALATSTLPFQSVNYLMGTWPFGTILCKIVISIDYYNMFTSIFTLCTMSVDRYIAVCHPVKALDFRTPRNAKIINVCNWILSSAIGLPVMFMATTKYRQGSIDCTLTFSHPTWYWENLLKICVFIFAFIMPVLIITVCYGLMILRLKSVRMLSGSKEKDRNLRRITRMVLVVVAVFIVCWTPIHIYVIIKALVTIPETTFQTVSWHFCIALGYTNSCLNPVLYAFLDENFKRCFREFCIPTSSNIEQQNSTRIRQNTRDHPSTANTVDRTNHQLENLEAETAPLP
UniProt P41143, whole entry, looked up: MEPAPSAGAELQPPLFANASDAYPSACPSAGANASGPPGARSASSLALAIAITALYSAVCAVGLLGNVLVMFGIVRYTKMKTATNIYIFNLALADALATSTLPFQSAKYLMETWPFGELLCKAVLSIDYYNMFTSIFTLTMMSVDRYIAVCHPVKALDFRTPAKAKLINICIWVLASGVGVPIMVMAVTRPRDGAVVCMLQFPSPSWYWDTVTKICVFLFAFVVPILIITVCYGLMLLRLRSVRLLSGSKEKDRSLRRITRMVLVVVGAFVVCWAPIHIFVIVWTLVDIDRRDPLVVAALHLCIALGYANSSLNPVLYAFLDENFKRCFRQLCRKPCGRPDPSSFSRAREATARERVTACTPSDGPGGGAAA

These molecules were tested against Mu-type opioid receptor (Homo sapiens) + Delta-type opioid receptor (Homo sapiens) (UniProt P35372+P41143) (assay: agonists of OPRM1-OPRD1 heterodimerization, primary screen, cell-based, luminescence (AID 504326;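 further: 0% = vehicle-treated cells and 100% = reference agonist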)). Conditions: cells, at 9.3 µM, hits give high values.

Row | SMILES | activation
1 | O=C(Cn1c(CO)nc2ccccc21)NCCc1ccc(F)cc1 | inactive: -1.06%
2 | CN1CC[C@]2(CCN3CCc4c(oc5ccccc45)[C@@H]3C2)N(C)C1=O | inactive: -1.53%
3 | COc1ccccc1OP(=O)(Nc1ccc(C)cn1)Oc1ccccc1OC | inactive: -3.63%
4 | CN1CCN(CCN2CCn3c2nc2ccccc23)CC1 | inactive: -3.1%
5 | CCC(C)(C)n1nnnc1CN1CCC(n2c(C)nc3cc(C(F)(F)F)ccc32)CC1 | inactive: 3.99%
6 | Cc1nc2cc(F)ccc2n1C1CCN(Cc2nnnn2CCc2ccccc2)CC1 | inactive: -2.63%
7 | O=C1Cn2c(nc3ccccc32)N1c1cccc(C(F)(F)F)c1 | inactive: 2.18%
8 | COc1ccc(C(=O)CSc2nc3ccccc3n2CC(=O)NC(C)(C)C)cc1 | inactive: -0.83%
9 | CCOc1cc(N2CCOCC2)c(OCC)cc1NC(=O)Cn1cnc2c(=O)n(C)c(=O)n(C)c21 | inactive: -1.44%
10 | COc1ccc(CNC(=O)CCCCCNC(=O)N2CCn3c2nc2ccccc23)cc1 | inactive: -2.78%
11 | CN1CCCC(OC(=O)C(c2ccccc2)c2ccccc2)C1 (stereo not drawn) | inactive: -0.97%
12 | CCCCOC(=O)Cn1c(=N)n(CCN2CCOCC2)c2ccccc21 | inactive: -2.43%
13 | O=C(Cn1c(NCCO)nc2ccccc21)NCCc1ccccc1 | inactive: 0.74%
14 | Cc1ccc(/C=N/NC(=O)Cn2cnc3ccccc32)cc1 | inactive: -3.03%
15 | Clc1ccc(Cl)c(NC2=NCC(CBr)S2)c1 (stereo not drawn) | inactive: -0.53%
16 | CCC(C(=O)NC1CCCCC1)n1c(SCc2ccc(F)cc2)nc2ccncc21 (stereo not drawn) | inactive: 0.7%
17 | Cc1ccc(-c2csc(N3CCN(c4ccc5nc(-c6ccncc6)n(CCN6CCCCC6)c5c4)CC3)n2)cc1 | inactive: 0.27%
18 | CN(C)C(=O)Cn1c(SCC(=O)Nc2ccc3c(c2)OCO3)nc2ccccc21 | inactive: -2.13%
19 | Nc1nonc1-c1nc2ccccc2n1CC(=O)N/N=C\c1ccc(-c2ccc(Cl)cc2)o1 | inactive: 1.35%
20 | NC(=O)c1cc([N+](=O)[O-])cc([N+](=O)[O-])c1N | inactive: 2.18%
21 | C[C@H](O)[C@@H]1C(=O)N2CCc3ccc(-c4ccccc4)cc3[C@@H]2C[C@@H]1N(C)C(=O)NC1CCCCC1 | inactive: -2.19%
22 | CSc1nc(N)nc2c1ncn2CC(=O)NCc1ccc2[nH]ccc2c1 | inactive: -4.06%

Row | SMILES | activation
23 | Cc1ccc2c(c1)C1CN(C)CCC1N2C(=O)c1ccc(Cl)c(S(=O)(=O)N2CCOCC2)c1 (stereo not drawn) | inactive: -2.53%
24 | O=C(Nc1ccccc1)N1CCC(n2c(=O)[nH]c3ccccc32)CC1 | inactive: -0.65%
25 | CC1CCCN(C(=O)Cn2c(-c3nonc3N)nc3ccccc32)C1 (stereo not drawn) | inactive: -2.42%
26 | CN(CC(=O)Nc1ccc(F)c(F)c1F)C(=O)Cn1cnc2c1c(=O)n(C)c(=O)n2C | inactive: 2.24%
27 | CC(CNC(=O)Cn1cnc2c(NCc3ccccc3)ncnc21)c1ccccc1 (stereo not drawn) | inactive: -1.9%
28 | CN(C(=O)Cc1ccc(Cl)c(Cl)c1)[C@H]1CCCC[C@H]1N1CCCC1 | inactive: -1.09%
29 | O=C(CSc1nc2ccccc2n1CC(=O)N1CCCCC1)N1CCCCC1 | inactive: -2.2%
30 | CCN(CC)CCn1c(NS(=O)(=O)c2ccc(C)cc2)nc2ccccc21 | inactive: 2.44%
31 | Cc1ccc(N/C(=N/P(=O)(N2CCOCC2)N2CCOCC2)N2CCOCC2)cc1 | inactive: -0.08%
32 | O=C(Cn1cnc2c(NCc3ccccc3)ncnc21)NCc1ccc2c(c1)OCO2 | inactive: -2.82%
33 | CCOCN(C(=O)Cn1c(C(C)O)nc2ccccc21)c1c(C)cccc1CC (stereo not drawn) | inactive: -2.28%
34 | CN1CCC(N(C)c2ncnc3ccc(Br)cc23)CC1 | inactive: -2.41%
35 | Cn1c(=O)c2c(ncn2CC(=O)N2CCN(c3ccc([N+](=O)[O-])cc3)CC2)n(C)c1=O | inactive: -2.03%
36 | CCc1nc2ccccc2n1CC(=O)N(C(C)CC)C1CCS(=O)(=O)C1 (stereo not drawn) | inactive: -1.72%
37 | CC(C)=N/N=C(\N)N[N+](=O)[O-] | inactive: -1.7%
38 | COC(=O)[C@H](Cc1ccc(O)cc1)NC(=O)Cn1cnc2c(NCc3ccccc3)ncnc21 | inactive: -3.33%
39 | Cn1c(=O)n(CC(=O)N2CCN(c3nnc(-c4ccccc4)c4ccccc34)CC2)c2ccccc21 | inactive: -3.16%
40 | CCN(CC)CCn1c(NCc2cccc(OC)c2OC)nc2ccccc21 | inactive: -3.24%
41 | NNC(=O)Cn1c(SCc2ccccc2)nc2ccccc21 | inactive: 3.03%
42 | O=C(Cn1cnc2c(OCc3ccccc3)ncnc21)NCCCN1CCCC1=O | inactive: -2.96%
43 | CN(C)C(=O)OCCc1n(C)cc[n+]1C | inactive: -1.12%
44 | CC1CCN(C(=O)Oc2c(Cl)cc(Cl)c3cccnc23)CC1 | inactive: 4.44%

Row | SMILES | activation
45 | CNC(=O)Cc1nc2ccccc2n1CC(=O)Nc1cc(C)cc(C)c1 | inactive: -1.2%
46 | N=c1n(CCN2CCOCC2)c2ccccc2n1CC(=O)c1cccc([N+](=O)[O-])c1 | inactive: 0.58%
47 | O=C1CC(C(=O)Nc2cccc(F)c2)n2c(nc3ccccc32)N1 (stereo not drawn) | inactive: 0.26%
48 | O=C(Cn1cnc2c(OCc3ccccc3)ncnc21)NCCCn1ccnc1 | inactive: -4.35%
49 | CCSc1nc2ccccc2n1CC(=O)N1CCCCC1 | inactive: -2.68%
50 | Cc1nc2ccccc2n1CC(=O)NC1CCCCCC1 | inactive: -1.22%
51 | FC(F)(F)c1ccc2c(c1)nnn2C1CCN(Cc2nnnn2Cc2ccccc2)CC1 | inactive: 2.36%
52 | COc1ccc2nc(NC(=O)Cn3cnc4c(=O)n(C)c(=O)n(C)c43)sc2c1 | inactive: 0.16%
53 | CCC(=O)Nc1ccc(NC(=S)NC(=O)/C=C/c2ccccc2)cc1 | inactive: -1.71%
54 | COCC(=O)N(C)[C@H]1C[C@H]2c3cc(N4CCN(C)CC4)ccc3CCN2C(=O)[C@H]1[C@H](C)O | inactive: -0.86%
55 | Nc1ccc([As](=O)(O)c2ccc(N)cc2)cc1 | inactive: -0.83%
56 | CCC(CC)NC(=O)Cn1c(C(C)NC(C)=O)nc2ccccc21 (stereo not drawn) | inactive: 0.37%
57 | c1ccc(CCn2nnnc2CN2CCC(n3nnc4ccccc43)CC2)cc1 | inactive: -1.35%
58 | C[C@H](NC(=O)N1CCn2c1nc1ccccc12)C(=O)NC1CCCCC1 | inactive: -1.74%
59 | CCc1ccc(C(C)NC(=O)Cn2cnc3c(=O)n(C)c(=O)n(C)c32)cc1 (stereo not drawn) | inactive: -2.97%
60 | Cc1nc2ccccc2n1CC(=O)NC(C)C1CC2CCC1C2 (stereo not drawn) | inactive: 1.28%
61 | C[N+]1=C2C=CC=CC=C2SC12C([N+](=O)[O-])=CC([N+](=O)[O-])=C[C-]2[N+](=O)[O-] (stereo not drawn) | inactive: -0.47%
62 | COc1ccc(-c2ccc3c(c2)[C@@H]2C[C@H](N(C)C(=O)Nc4ccccc4)[C@H]([C@H](C)O)C(=O)N2CC3)cc1 | inactive: -2.3%
63 | Cc1ccc(-c2nnc(N3CCN(C(=O)Cn4c(=O)n(C)c5ccccc54)CC3)c3ccccc23)cc1 | inactive: -0.3%
64 | COc1ccc(/C([O-])=C(/C(=S)Nc2ccc(C)c(C)c2)n2c[n+](C)c3ccccc32)cc1OC | inactive: -5.48%
65 | CCN(/C(=N/P(=O)(N1CCOCC1)N1CCOCC1)N1CCOCC1)c1ccc(OC)cc1 | inactive: -2.87%
66 | CC(C)C[C@H](NC(=O)N1CCn2c1nc1ccccc12)C(=O)NC1CCCCC1 | inactive: -0.49%

Row | SMILES | activation
67 | O=C(Nc1ccc2c(c1)nc1n2CCN(Cc2ccccc2)C1)NC1CCCCC1 | inactive: -2.47%
68 | CCOC(=O)c1c(NC(=O)Cn2c(C)nc3ccccc32)sc2c1CCC2 | inactive: -0.88%
69 | Cn1ncc([N+](=O)[O-])c1C(=O)Nc1nc2ccccc2n1CCN1CCCCC1 | inactive: -1.88%
70 | CC(=O)N1C2C3N(C(C)=O)C1C1N(C(C)=O)C(C(N1C(C)=O)N3C(C)=O)N2C(C)=O | inactive: -2.89%
71 | CC#CCCC(=O)N1C=Cc2ccccc2C1C#N (stereo not drawn) | inactive: -2.03%
72 | O=[N+]([O-])c1cccc2n[nH]nc12 | inactive: -2.58%
73 | COC(=O)c1sccc1NC(=O)Cn1cnc2c1c(=O)n(C)c(=O)n2C | inactive: 1.51%
74 | N#CCCNC(=O)Cn1c(COc2ccc(Cl)cc2)nc2ccccc21 | inactive: -0.65%
75 | Cn1c(=O)[nH]c(=O)c2c1nc1n2CCN1Cc1ccccc1 | inactive: -2.47%
76 | Nc1nonc1-c1nc2ccccc2n1CC(=O)N1CCCCC1 | inactive: 0.04%
77 | Cc1ccc(C)c(CN2CCC(n3nnc4cc(F)ccc43)CC2)c1 | active: 44.1%
78 | CCOc1ccccc1OCC(=O)NNC(=O)Cn1cnc2c1c(=O)n(C)c(=O)n2C | inactive: 0.72%
79 | CC1CCCCC1NC(=O)Cn1cnc2c1c(=O)n(C)c(=O)n2C (stereo not drawn) | inactive: -0.27%
80 | Cc1ccccc1Cn1c(=O)c2c(nc3n2CCN3Cc2ccco2)n(C)c1=O | inactive: -3.79%
81 | Cc1nc2ccccc2n1CC(=O)N/N=C/c1cccs1 | inactive: -2.7%
82 | COC(=O)c1ccccc1NC(=O)Cn1cnc2cc(C)c(C)cc21 | inactive: 0.41%
83 | CSCC[C@H](NC(=O)N1CCn2c1nc1ccccc12)C(=O)N[C@H](Cc1ccccc1)C(=O)O | inactive: -3.17%
84 | Cc1ccc(NP(=O)(Oc2ccccc2)Oc2ccccc2)nc1 | inactive: -3.07%
85 | O=[N+]([O-])c1ccc(NC2CCN(Cc3ccccc3)CC2)c([N+](=O)[O-])c1 | inactive: -0.76%
86 | CC1CC(C)CN(C(=O)Cn2c(-c3nonc3N)nc3ccccc32)C1 (stereo not drawn) | inactive: -1.59%
87 | Cc1csc2ncnc(NC3CCN(Cc4ccccc4)CC3)c12 | inactive: -0.3%
88 | Cn1c(=O)[nH]c(=O)c2c1nc(CN1CCN(Cc3ccccc3)CC1)n2CC(N)=O | inactive: -2.71%
